Here are results for 23 molecules from PMC10141604, “Small-Molecule Inhibition of Androgen Receptor Dimerization as a Strategy against Prostate Cancer” (ACS Central Science, 2023).

Amino acid sequences for entries named in this document (tags omitted).
UniProt P10275, whole entry T878A: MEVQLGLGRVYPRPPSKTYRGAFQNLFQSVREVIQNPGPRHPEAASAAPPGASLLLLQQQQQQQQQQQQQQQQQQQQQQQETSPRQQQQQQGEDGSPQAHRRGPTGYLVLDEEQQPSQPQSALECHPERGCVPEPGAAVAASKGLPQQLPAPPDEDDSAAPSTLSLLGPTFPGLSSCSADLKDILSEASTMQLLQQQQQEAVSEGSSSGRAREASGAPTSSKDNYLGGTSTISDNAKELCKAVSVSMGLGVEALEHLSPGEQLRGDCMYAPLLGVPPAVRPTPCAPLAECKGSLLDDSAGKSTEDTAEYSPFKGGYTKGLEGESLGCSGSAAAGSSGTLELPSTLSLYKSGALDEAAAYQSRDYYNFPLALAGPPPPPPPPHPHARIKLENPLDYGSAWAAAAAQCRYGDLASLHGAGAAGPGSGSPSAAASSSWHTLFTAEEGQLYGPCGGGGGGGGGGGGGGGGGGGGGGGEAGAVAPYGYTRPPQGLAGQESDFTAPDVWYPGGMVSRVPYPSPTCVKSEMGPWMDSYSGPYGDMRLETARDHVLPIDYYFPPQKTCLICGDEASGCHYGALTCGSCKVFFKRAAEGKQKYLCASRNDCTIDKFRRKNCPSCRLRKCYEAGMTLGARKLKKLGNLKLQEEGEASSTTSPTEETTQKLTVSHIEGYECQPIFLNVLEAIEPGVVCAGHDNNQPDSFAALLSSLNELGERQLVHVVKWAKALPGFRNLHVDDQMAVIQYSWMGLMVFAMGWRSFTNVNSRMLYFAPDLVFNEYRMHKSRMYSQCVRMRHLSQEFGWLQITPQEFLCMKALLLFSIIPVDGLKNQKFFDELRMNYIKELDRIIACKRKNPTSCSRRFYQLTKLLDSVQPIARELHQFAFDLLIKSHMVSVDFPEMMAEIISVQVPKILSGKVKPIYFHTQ

The target of the assay is AR (Homo sapiens, UniProt P10275, T878A). Description: AR transcriptional activity assay (LNCaP-ARR2PB-eGFP cells). As to conditions: read-out: IC50, AR transcriptional activity, 5 nM DHT, 3 days.
As for `CC(=O)Cc1nsc(NC(=O)c2cc(-c3ccccc3)oc2C)n1`, the half-inhibitory concentration (IC50) came out at 4100 nM.
`CC(=O)Cc1nsc(NC(=O)c2cc(-c3cccc(N)c3)oc2C)n1`: the 50% inhibitory concentration (IC50) is 3520 nM.
As for `CC(=O)Cc1nsc(NC(=O)c2cc(-c3ccc(Cl)cc3)oc2C)n1`, the IC50 was determined as 1020 nM.
With `CC(=O)Cc1nsc(NC(=O)c2cc(-c3cccc(C(N)=O)c3)oc2C)n1`, the IC50 was over 50000 nM.
As to `CC(=O)Cc1nsc(NC(=O)c2cc(-c3cccc4ccccc34)oc2C)n1`, the concentration for half-maximal inhibition (IC50) worked out at 16400 nM.
As for `CC(=O)Cc1nsc(NC(=O)c2cc(-c3ccc4ccccc4c3)oc2C)n1`, the IC50 was 9590 nM.
In the case of `CC(=O)Cc1nsc(NC(=O)c2cc(-c3ccccc3Cl)oc2C)n1`, the concentration for half-maximal inhibition (IC50) was found to be 860 nM.
Take `CC(=O)Cc1nsc(NC(=O)c2cc(-c3ccc(Cl)cc3Cl)oc2C)n1`: the IC50 is 5750 nM.
As to `CC(=O)Cc1nsc(NC(=O)c2cc(-c3cccc(F)c3)oc2C)n1`, the IC50 stood at 700 nM.
Regarding `CC(=O)Cc1nsc(NC(=O)c2coc(-c3ccc(Cl)c(Cl)c3)n2)n1`, the half-maximal inhibitory concentration (IC50) is over 50000 nM.
Turning to `CC(=O)Cc1nsc(NC(=O)c2cc(-c3cccc(Br)c3)oc2C)n1`, the concentration for half-maximal inhibition (IC50) was 230 nM.
`CC(=O)Cc1nsc(NC(=O)c2cc(-c3cccc(OC(C)=O)c3)oc2C)n1`: the IC50 is 10300 nM.
With `CC(=O)Cc1nsc(NC(=O)c2cc(-c3cc(Cl)ccc3Cl)oc2C)n1`, the half-inhibitory concentration (IC50) is 2070 nM.
For the molecule `COc1cccc(-c2cc(C(=O)Nc3nc(CC(C)=O)ns3)c(C)o2)c1`, the IC50 came to 80 nM.
Regarding `CC(=O)Cc1nsc(NC(=O)c2cc(-c3cccc(C#N)c3)oc2C)n1`, the 50% inhibitory concentration (IC50) is 140 nM.
As for `CC(=O)Cc1nsc(NC(=O)c2cc(-c3cccc([N+](=O)[O-])c3)oc2C)n1`, the IC50 amounted to 790 nM.
Regarding `CC(=O)Cc1nsc(NC(=O)c2cc(-c3cccnc3)oc2C)n1`, the IC50 is over 50000 nM.
With `CC(=O)Cc1nsc(NC(=O)c2cc(-c3cc(Cl)cc(Cl)c3)oc2C)n1`, the IC50 amounted to 3760 nM.
As to `CC(=O)Cc1nsc(NC(=O)c2cc(-c3cc(C(F)(F)F)ccc3Cl)oc2C)n1`, the IC50 is 1100 nM.
On to `CC(=O)Cc1nsc(NC(=O)c2cc(-c3cccc(NC(C)=O)c3)oc2C)n1`, for which the 50% inhibitory concentration (IC50) was over 50000 nM.
Regarding `CC(=O)Cc1nsc(NC(=O)c2cc(-c3cccc(C(C)(C)C)c3)oc2C)n1`, the 50% inhibitory concentration (IC50) was 500 nM.
As for `CC(=O)Cc1nsc(NC(=O)c2cc(-c3cccc(Cl)c3)oc2C)n1`, the IC50 is 290 nM.
For `CC(=O)Cc1nsc(NC(=O)c2cc(-c3cccc(O)c3)oc2C)n1` the value was 14800 nM.

A word on the IC50: it is the concentration that gives 50% inhibition.
